We go through one molecule from patent US12559506B2, “Indazole based compounds and associated methods of use” (Arvinas Operations, Inc., priority 2021, dated 2026).

Amino acid sequences for entries named in this document (tags omitted).
UniProt Q5S007, whole entry: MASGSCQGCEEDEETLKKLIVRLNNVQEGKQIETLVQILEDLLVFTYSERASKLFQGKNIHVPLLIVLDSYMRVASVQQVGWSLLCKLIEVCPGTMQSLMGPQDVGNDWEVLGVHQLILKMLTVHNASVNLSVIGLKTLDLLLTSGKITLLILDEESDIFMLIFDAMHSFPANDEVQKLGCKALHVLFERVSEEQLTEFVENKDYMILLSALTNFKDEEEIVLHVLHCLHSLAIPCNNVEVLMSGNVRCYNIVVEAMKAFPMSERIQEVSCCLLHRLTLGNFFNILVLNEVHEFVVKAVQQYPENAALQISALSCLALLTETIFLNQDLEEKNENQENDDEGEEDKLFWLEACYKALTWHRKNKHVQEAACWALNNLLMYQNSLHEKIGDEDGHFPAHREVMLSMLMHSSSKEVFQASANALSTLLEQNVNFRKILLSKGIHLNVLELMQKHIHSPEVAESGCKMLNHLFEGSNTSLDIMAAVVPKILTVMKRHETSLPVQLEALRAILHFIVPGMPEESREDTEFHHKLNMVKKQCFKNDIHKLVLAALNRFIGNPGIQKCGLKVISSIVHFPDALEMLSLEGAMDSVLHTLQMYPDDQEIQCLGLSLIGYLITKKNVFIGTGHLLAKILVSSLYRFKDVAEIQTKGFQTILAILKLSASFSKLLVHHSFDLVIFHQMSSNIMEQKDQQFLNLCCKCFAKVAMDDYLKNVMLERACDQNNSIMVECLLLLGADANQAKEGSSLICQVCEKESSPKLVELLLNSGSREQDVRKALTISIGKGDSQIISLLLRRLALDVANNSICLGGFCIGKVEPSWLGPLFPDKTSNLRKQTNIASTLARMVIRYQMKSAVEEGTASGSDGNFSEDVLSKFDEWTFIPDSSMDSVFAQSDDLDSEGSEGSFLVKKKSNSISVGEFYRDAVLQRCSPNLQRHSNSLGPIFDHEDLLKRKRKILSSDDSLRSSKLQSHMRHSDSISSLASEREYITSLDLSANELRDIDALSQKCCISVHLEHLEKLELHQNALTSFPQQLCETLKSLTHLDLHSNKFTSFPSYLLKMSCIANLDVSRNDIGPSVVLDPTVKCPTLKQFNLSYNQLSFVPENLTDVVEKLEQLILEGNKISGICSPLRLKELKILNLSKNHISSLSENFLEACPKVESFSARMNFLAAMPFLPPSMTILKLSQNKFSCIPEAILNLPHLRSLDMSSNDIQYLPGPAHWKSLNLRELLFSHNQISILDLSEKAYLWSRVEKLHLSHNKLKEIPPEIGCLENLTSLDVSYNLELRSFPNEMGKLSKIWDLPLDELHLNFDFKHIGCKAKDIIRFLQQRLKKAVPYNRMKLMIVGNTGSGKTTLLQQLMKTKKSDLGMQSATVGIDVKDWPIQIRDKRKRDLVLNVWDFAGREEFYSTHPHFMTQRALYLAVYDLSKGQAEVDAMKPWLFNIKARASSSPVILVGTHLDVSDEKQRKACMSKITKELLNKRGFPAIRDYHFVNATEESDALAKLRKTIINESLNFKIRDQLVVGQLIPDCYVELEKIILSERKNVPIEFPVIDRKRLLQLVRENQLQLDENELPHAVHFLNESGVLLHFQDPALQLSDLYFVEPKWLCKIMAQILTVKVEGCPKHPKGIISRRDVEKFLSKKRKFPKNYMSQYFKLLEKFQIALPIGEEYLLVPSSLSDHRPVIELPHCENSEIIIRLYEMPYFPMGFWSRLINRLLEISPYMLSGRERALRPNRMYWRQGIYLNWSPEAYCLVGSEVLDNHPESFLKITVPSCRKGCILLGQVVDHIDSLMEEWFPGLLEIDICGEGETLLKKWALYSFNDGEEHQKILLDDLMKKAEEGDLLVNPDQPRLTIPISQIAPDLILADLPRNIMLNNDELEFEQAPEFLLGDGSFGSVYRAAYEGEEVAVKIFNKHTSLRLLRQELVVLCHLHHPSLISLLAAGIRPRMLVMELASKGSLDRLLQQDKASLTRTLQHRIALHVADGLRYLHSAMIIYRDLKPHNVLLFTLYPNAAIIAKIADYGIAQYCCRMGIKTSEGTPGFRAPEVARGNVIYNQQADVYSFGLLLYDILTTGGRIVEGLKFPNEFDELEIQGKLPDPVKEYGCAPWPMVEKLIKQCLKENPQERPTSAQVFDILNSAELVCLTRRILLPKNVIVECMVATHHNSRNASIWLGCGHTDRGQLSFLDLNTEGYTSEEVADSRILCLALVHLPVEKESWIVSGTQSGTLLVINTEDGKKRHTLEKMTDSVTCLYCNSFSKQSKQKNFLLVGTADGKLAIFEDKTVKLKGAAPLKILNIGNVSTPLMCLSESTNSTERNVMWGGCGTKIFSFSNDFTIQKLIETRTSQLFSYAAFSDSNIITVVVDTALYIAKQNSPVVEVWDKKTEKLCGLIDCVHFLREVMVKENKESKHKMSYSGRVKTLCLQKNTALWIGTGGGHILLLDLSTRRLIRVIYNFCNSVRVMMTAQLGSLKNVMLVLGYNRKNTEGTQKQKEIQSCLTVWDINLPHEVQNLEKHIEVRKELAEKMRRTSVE

This assay deals with LRRK2 (endogenous, HiBit tagged) (Homo sapiens, UniProt Q5S007). Put plainly: Endogenous LRRK2 degradation assay, endogenous gene C-terminally HiBit-tagged in HEK293 cells (Nano-Glo Dual Luciferase). An excerpt: Exemplary Assay for Testing LRRK2 Degradation Driven by Exemplary Hetero-Bifunctional Compounds Designed to Target LRRK2
The assay measures the degradation of LRRK2 in cells where the C-terminus (3′) of the endogenous gene has been tagged with a HiBit sequence in HEK293 cells. The cells also express firefly luciferase, expressed from a Cytomegalovirus promoter and introduced into the HiBit tagged cells and stably expressed. The Nano-Glo® Dual Luciferase Reporter Assay System (Promega™, Madison, WI) was utilized.
Day 1—Preparation of Compound and Assay Plates. Two sets of plates were prepared: a triplicate set for the HiBit assay in white 384-well plates and a triplicate set of plate in black 384-well plates for the Alamar Blue cell viability assay. Briefly, the growth media (DMEM+Glutamax-10% fetal bovine serum-1% Penicillin-Streptomicin) from two T128 flasks was aspirated from the flasks. Cells were washed with Dulbecco's Phosphate Buffered Saline (dPBS) and aspirated. […]
Day 3—HiBit Assay. […] Fluorescence of each plate was read on a plated reader for the Alamar Blue viability assay. […]
The One Glo luciferase mixture was prepared. […] The luminescence of each plate was read on a plate reader.
1:100 DLR substrate and 1:100 LgBiT Protein dilution were added to the Promega Stop and Glo buffer and mixed just before addition to assay plates. […] The luminescence of each plate was read on a plate reader. […]
Background: HiBiT is a short tag that completes a luciferase, so light tracks the accessible tagged protein.

As to `C[C@H]1CN(c2cc(-c3n[nH]c4ccc(OC5(C)CC5)cc34)ncn2)CCN1CC1(F)CCN(CC2CCN(c3cc4c(cc3F)C(=O)N(C3CCC(=O)NC3=O)C4)CC2)CC1` (some centres unmarked), the “**Endogenous WT Dmax (%)” value (24 hours) is reported as “A (A ≥ 70)”. The DC50 (read-out: *Endogenous WT DC50, 24 hours) is below 10 nM.

In general, DC50 refers to the concentration giving 50% degradation.
